# Target: hATX (Homo sapiens, UniProt Q13822)
# Conditions: LPC(18:1) substrate; result in words
smiles,measurement,value
"C[C@H](CCC(=O)O)[C@H]1CC[C@H]2[C@@H]3[C@@H](O)C[C@@H]4C[C@H](O)CC[C@]4(C)[C@H]3CC[C@]12C [UDCA, Ursodeoxycholic acid]",effect on ATX-mediated LPC hydrolysis,did not significantly change potency

# From publication PMC4834639, “Steroid binding to Autotaxin links bile salts and lysophosphatidic acid signalling” (Nature Communications, 2016)
